Test results published in US5196446A (priority 1991, dated 1993).

Chains of the proteins cited; added tags and fusions are not shown. Residues count along the entry.
UniProt P00533, 25-1210: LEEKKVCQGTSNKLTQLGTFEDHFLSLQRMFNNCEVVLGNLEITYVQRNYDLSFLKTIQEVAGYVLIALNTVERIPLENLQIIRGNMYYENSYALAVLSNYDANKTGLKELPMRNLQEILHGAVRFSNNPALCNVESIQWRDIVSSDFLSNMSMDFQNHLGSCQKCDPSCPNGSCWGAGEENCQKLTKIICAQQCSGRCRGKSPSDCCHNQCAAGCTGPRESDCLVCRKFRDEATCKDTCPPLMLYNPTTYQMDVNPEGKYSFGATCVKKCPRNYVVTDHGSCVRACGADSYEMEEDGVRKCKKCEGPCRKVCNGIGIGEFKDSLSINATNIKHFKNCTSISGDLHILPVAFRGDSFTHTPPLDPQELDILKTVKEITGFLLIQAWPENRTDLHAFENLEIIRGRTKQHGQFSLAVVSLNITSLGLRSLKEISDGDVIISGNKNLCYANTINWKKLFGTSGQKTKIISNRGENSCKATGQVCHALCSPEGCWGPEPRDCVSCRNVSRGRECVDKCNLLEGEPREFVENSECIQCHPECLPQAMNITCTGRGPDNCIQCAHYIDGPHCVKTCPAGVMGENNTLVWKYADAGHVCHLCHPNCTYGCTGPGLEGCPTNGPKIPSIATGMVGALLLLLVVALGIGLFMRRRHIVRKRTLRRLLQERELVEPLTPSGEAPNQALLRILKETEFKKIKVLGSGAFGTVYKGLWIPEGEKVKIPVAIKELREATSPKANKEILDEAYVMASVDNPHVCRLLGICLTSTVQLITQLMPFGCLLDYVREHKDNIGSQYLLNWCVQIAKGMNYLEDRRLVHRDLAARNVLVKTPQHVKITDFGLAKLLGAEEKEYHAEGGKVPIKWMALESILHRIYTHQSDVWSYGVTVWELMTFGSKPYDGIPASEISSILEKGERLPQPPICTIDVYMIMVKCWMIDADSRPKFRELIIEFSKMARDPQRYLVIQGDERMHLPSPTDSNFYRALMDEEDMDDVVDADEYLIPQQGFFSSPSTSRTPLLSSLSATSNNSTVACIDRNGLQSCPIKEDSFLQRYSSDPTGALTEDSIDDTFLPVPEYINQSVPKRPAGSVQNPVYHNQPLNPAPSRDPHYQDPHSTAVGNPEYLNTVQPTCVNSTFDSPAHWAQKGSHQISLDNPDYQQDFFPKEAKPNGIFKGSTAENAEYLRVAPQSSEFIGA

Biological target: T1, EGF receptor tyrosine kinase (Homo sapiens, UniProt P00533)
T1 construct: WGA-purified EGF receptor from A431 cells; endogenous in cells; host or cells: A431 cells (solubilized, receptor enriched on WGA-agarose)
Format: biochemical
Details: read-out: IC50 (concentration of inhibitor required to inhibit 50% of polyGAT phosphorylation)

N#CC(C#N)=Cc1ncc[nH]1 [Example 1, 2-Imidazolidene malononitrile]
pIC50: 3.27

pIC50: −log10 of the molar value.
